System: MCF7 spheroids
Type: cell-based
Settings: presence of Trastuzumab 2.5 μg/mL and NK92-CD16 (5:1), paclitaxel dose range, 24 h
Description: High-content imaging of 3D tumor spheroid micropillar array for effector cell-mediated cytotoxicity including NK ADCC/drug combination. Uniform-sized 3D spheroids in the 330-micropillar array were used to perform high-throughput ADCC on three different cancer cell lines; MiaPaCa-2, MCF7 and MDA-MB-231, the latter a triple negative breast cancer cell line, in the presence and absence of two chemotherapeutic drugs, doxorubicin and paclitaxel. The ADCC screen was performed by spotting 250 nL onto polydopamine-coated micropillars including 2500 target cancer cells per spot. The cells were cultured for 3 days and then treated with NK92-CD16 cells. […] As a control, one block of spots was reserved for exposure of target cells with both antibody and the drugs but without NK92-CD16 cells. The micropillar/microwell sandwich platform was incubated for 24 h upside-down to allow for target cell killing on culture day 3. […]
Similarly, for the dose response experiments with paclitaxel, where the E:T ratio was fixed at 5:1, 25 different conditions including a dead cell control were evaluated, as shown in Table 2.
Unconjugated anti-HER2 antibody was used for experiments on 330 micropillar/microwell chips. […] The chips were subsequently washed in DPBS and imaged using an ASFA™ Cell Scanner (MBD Korea Co., South Korea) and quantitatively analyzed using cell analyzer software within the imaging system. […]

Substance: Trastuzumab
- killing of tumor spheroids: augmented

— US20240201169A1, “METHODS OF THREE-DIMENSIONAL TUMOR SPHEROID MICROARRAY FOR HIGH-THROUGHPUT, HIGH-CONTENT IMMUNE CELL-MEDIATED CYTOTOXICITY” (RENSSELAER POLYTECHNIC INSTITUTE, priority 2021, published 2024)
